Biological target: Angiotensin-converting enzyme (Homo sapiens) (UniProt P12821)
Assay: Inhibition of ACE (unknown origin)
Design: unit not given here

Chains of the proteins cited; added tags and fusions are not shown.
UniProt P12821, whole entry: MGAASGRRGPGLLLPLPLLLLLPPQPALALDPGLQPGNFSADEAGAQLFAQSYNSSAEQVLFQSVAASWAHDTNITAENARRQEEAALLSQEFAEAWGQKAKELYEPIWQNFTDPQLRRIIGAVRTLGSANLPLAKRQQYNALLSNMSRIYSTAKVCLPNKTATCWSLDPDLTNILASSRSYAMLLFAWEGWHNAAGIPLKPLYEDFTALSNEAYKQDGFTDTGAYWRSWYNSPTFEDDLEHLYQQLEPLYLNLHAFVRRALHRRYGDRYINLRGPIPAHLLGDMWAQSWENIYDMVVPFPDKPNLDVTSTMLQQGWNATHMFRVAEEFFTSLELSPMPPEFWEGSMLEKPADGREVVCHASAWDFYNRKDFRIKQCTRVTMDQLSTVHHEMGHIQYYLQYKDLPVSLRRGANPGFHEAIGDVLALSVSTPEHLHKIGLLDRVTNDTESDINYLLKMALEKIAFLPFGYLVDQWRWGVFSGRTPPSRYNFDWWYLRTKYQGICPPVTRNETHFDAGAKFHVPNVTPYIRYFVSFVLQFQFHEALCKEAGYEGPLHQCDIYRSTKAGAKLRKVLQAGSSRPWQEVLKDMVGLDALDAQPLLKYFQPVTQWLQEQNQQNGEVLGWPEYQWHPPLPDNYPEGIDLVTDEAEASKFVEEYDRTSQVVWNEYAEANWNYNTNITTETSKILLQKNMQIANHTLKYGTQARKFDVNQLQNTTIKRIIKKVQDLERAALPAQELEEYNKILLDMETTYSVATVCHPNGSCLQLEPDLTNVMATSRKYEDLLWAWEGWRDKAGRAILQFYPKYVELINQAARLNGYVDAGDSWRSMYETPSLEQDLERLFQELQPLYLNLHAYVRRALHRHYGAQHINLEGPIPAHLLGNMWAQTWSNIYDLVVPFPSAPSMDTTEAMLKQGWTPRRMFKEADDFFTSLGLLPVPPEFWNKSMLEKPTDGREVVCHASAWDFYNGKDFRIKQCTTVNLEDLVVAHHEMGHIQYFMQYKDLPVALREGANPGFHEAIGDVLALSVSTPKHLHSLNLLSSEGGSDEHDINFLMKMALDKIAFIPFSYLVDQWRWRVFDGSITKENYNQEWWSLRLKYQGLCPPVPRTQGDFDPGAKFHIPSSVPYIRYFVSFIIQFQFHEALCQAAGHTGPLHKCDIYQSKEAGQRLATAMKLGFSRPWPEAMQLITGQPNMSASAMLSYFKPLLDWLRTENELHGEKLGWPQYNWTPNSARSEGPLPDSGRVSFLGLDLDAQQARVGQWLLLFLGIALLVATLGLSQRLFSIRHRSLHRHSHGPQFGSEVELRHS

- logIC50: 1.61
Structure (SMILES): CC(C)C[C@H](NC(=O)[C@@H]1CCCN1C(=O)[C@H](CC(C)C)NC(=O)[C@@H](N)Cc1cnc[nH]1)C(=O)N1CCC[C@H]1C(=O)O

From ChEMBL document CHEMBL3352520, “CoMFA and CoMSIA analysis of ACE-inhibitory, antimicrobial and bitter-tasting peptides” (Eur J Med Chem, 2014)
